Tests used:
β-adrenoreceptor [1] = assay: Heart rate (pulse) increase, i.v., anesthetized dogs; design: species or system dog (male hybrid adult dogs); settings: dog, in vivo
Description: The stimulating activity of the compounds of this invention on β-adrenoreceptor was determined as follows: Male hydrid adult dogs, weighing 10 to 15 kg, were anesthesized with sodium pentobartital administered intravenously at a level of 30 mg/kg of body weight. Each of the anesthesized dogs was secured on its back and a cannula was inserted into the trachea.
In the above procedure, histamine was employed as a bronchoconstrictor at a dosage level of 10 μg/kg of body weight, and an aqueous solution containing each of the test compounds and controls shown in Table 1 below was then administered to each of the anesthesized dogs through the femoral vein at the various dosage levels as shown in Table 1 below 1 minute before the administration of the histamine. Sodium pentobartital was infused during the procedure at a dosage level of 4 mg/kg of body weight/hr using an automatic injector in order to inhibit spontaneous respiration and to maintain the anesthetic condition constant over the test period.
(§1) ED50 values were calculated using a Dose Response curve. At the same time the pulse was measured through a transducer and the value was recorded on a polygraph.

Protein sequences, listed by entry. Tags and fused reporters are not part of them.
UniProt P54833, whole entry: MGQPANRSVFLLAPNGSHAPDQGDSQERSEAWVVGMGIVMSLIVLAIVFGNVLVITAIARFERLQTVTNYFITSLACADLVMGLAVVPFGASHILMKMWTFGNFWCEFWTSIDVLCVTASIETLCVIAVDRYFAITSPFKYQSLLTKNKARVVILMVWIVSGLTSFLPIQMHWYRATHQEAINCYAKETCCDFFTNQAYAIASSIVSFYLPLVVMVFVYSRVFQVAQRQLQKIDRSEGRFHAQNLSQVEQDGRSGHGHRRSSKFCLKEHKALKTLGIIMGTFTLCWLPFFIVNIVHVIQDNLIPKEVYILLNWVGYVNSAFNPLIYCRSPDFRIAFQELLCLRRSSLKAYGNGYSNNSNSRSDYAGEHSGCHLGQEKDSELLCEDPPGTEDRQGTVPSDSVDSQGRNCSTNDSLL

β-adrenoreceptor [2] = target: T1, β-adrenoreceptor (Canis lupus familiaris, UniProt P54833); assay: Inhibition of histamine-induced bronchial resistance increase (bronchospasm), i.v., Konzett-Rossler method, anesthetized dogs; format: in vivo, dog (male hybrid adult dogs); settings: ED50 compared to isoproterenol as standard compound
T1 construct: from tissue; host or cells: airways of anesthetized dogs, in vivo
Description: (§2) The stimulating activity of the compounds of this invention on β-adrenoreceptor was determined as follows: Male hydrid adult dogs, weighing 10 to 15 kg, were anesthesized with sodium pentobartital administered intravenously at a level of 30 mg/kg of body weight. Each of the anesthesized dogs was secured on its back and a cannula was inserted into the trachea. Artificial respiration was conducted using a device according to the Konzett-Rossler method (Konzett H. & Rossler R., "Versuchsanordnug zu Untersuchungen an der Bronchial Moskolatur", Arch. Exp. Path., Pharmack, 195, 71-74, 27-40 (1940). The volume of the air which overflowed at the time of inhalation was measured through a pneumotachometer to determine the bronchial resistance and the values obtained were recorded on a polygraph.
(§3) In the above procedure, histamine was employed as a bronchoconstrictor at a dosage level of 10 μg/kg of body weight, and an aqueous solution containing each of the test compounds and controls shown in Table 1 below was then administered to each of the anesthesized dogs through the femoral vein at the various dosage levels as shown in Table 1 below 1 minute before the administration of the histamine. […]
as §1

β2-receptor = assay: Separation of bronchial resistance effect from heart rate effect (β2 selectivity), anesthetized dogs; format: in vivo, dog (male hybrid adult dogs); settings: i.v.
Description: as §2, §3, §1

## CCC(NC(C)C)C(O)c1ccc(OC(=O)Cc2ccccc2)c2[nH]c(=O)ccc12.Cl (stereo not drawn) [(7), 8-phenylacetoxy-5-(1-hydroxy-2-isopropylaminobutyl)carbostyril hydrochloride]
β-adrenoreceptor [1]
  Heart Rate (HR) Relative Potency: 12.6
β-adrenoreceptor [2]
  Bronchial Resistance (BR) Relative Potency: 1.13
β2-receptor
  Separation Ratio HR(Relative Potency)/BR(Relative Potency): 11.2
